The values that follow come from ChEMBL document CHEMBL3804825, “Synthesis, structure-activity relationships, and biological evaluation of a series of benzamides as potential multireceptor antipsychotics” (Bioorg Med Chem Lett, 2016).

By UniProt entry, the sequences of proteins in these tests, tags left out.
UniProt P14416, whole entry: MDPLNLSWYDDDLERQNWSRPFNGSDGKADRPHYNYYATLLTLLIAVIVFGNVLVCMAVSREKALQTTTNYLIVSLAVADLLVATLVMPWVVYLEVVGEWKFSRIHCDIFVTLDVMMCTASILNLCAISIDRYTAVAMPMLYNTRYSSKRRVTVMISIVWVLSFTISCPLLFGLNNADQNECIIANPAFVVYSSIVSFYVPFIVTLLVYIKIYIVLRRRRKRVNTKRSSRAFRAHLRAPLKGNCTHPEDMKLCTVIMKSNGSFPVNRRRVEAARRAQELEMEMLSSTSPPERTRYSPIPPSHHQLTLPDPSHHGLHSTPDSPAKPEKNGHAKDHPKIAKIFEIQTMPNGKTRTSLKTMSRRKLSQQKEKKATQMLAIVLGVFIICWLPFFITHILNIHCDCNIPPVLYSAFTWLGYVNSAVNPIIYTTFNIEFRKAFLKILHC

Molecules are shown by their SMILES.

For the test, the target named is D(2) dopamine receptor (Homo sapiens, UniProt P14416). Description: Antagonistic activity at human dopamine D2 receptor measured after 60 mins by Ultra Lance cAMP assay. Type of test: functional. A general note: Cyclic AMP is a second messenger, typically raised through Gs and lowered through Gi signalling.

Turning to `NC(=O)c1cccc(OCCCCN2CCN(c3cccc(Cl)c3Cl)CC2)c1`, the IC50 – broadly, the concentration at which inhibition is half-maximal – is 55 nM.
